Results taken from article PMC10724293, “New ruthenium-xanthoxylin complex eliminates colorectal cancer stem cells by targeting the heat shock protein 90 chaperone” (Cell Death & Disease, 2023).

System: CR02 (colorectal carcinoma)
Assay: Alamar blue viability of primary cancer cells
Type: cell-based, human
Details: primary CRC (second listed); 25 μg/ml (RXC 31.3 μM, DOX 46 μM); 96 h
Protocol: The Alamar blue assay was used to determine cell viability as previously described. Cells were seeded into 96-well plates at a density of 7 × 10^3 cells per well for adherent cells or 3 × 10^4 cells per well for suspended cells. The drug was added to each well after 24 h of incubation for adherent cells or immediately for suspended cells and incubated for an additional 72 h. The positive control included DOX (Laboratorio IMA S.A.I.C., Buenos Aires, Argentina) or 5-fluorouracil (5-FU, Sigma-Aldrich Co.). Each well received 100 µM resazurin (Sigma-Aldrich Co. St. Louis, MO, United States) four (for cell lines) or 24 (for primary culture) h before the end of the incubation. A SpectraMax 190 Microplate Reader (Molecular Devices, Sunnyvale, CA, USA) was used to measure absorbance at 570 and 600 nm.
CR03 (metastatic cholangiocarcinoma) CR04 (malignant papillary mesothelioma)
Figure S1. The effect of RXC on primary cancer cells. Cells were exposed to 25
μg/mL of each compound (RXC = 31.3 μM, DOX = 46 μM), and cell viability was
measured after 96 h using the Alamar blue assay. The data are presented as the
mean ± S.E.M. of four replicates. * P < 0.05 compared to CTL by one-way ANOVA
followed by Dunnett's multiple comparisons test.
(also on this page, place not known: Cell (% control) Cell viability (% control) CTL RXC DOX RXC of DOX viability of CTL) […]

## COc1cccc2c1C(=O)c1c(O)c3c(c(O)c1C2=O)C[C@@](O)(C(=O)CO)C[C@@H]3O[C@H]1C[C@H](N)[C@H](O)[C@H](C)O1 [DOX, Doxorubicin]
  reduced cell viability: 36.2%
